From US20090258013A1 (Genentech, published 2009) come the findings set out here.

By UniProt entry, the sequences of proteins in these tests, tags left out. Chains listed by the source or under a name are the forms on record and can include a tag or linker.
UniProt Q9NQS3, other isoform, or with tags, fused parts or gaps limits assumed: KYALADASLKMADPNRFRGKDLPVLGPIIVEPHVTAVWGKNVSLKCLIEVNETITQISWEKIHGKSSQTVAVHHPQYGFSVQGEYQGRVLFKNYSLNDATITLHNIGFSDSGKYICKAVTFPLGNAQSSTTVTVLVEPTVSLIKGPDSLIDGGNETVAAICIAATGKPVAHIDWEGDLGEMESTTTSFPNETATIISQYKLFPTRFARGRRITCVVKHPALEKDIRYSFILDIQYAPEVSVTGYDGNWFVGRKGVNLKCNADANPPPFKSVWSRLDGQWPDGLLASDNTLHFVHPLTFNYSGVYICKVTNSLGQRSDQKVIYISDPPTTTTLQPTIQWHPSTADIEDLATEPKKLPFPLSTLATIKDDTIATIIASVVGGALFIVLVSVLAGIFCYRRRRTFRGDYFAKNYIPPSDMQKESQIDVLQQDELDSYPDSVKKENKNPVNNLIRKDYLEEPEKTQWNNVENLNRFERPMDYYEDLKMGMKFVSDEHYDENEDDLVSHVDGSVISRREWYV

Assay [1] addresses T1, gD-tagged full-length PVRL3 expressed on stably transfected CHO cells (UniProt Q9NQS3 58-549, limits assumed).
T1 construct: whole, on cells
Kind of assay: competition radioligand binding, 125I Fc-ligand on receptor-expressing CHO cells, Scatchard. The procedure:
Plasmids were transfected into CHO cells using Lipofectamine LTX (Invitrogen). Expression of gD-tagged proteins was verified by flow cytometry using the Alexa-647 anti-gD conjugate. Stably-transfected cell lines were sorted twice by FACS for purity before use. Fc-fusion proteins constructed as described above were iodinated (¹²⁵I) using the Iodogen method. Binding studies were carried out on stable transfectants in triplicate with 0.1-3 nM iodinated ligand. […] Cell suspensions were harvested onto nitrocellulose membranes (Millipore) and washed extensively.
(§1) Receptors were expressed on CHO cells, and all ligands were -Fc constructs. MFI was determined by flow cytometry with biotinylated Fc-ligands, after gating on receptor-positive cells. Binding affinity (Kd) was determined by competition radioligand binding assay. Kd is indicated (nM) and is the average value from at least 3 independent assays, except where indicated (*).

Assay [2] deals with T1, gD-tagged full-length PVRL3 expressed …. Kind of assay: flow cytometry, biotinylated Fc-ligand on receptor-expressing CHO cells (+++ MFI = 1000-4999).
From the text: Fc fusion proteins were biotinylated via amine coupling using NHS-PEO4-Biotin (Pierce) in PBS. Binding of biotin-ligands was detected using phycoerythrin-conjugated streptavidin (Caltag). Mouse monoclonal antibody to gD tag (Genentech) was conjugated to AlexaFluor 647 (Invitrogen). Antibodies were conjugated to appropriate fluor labels using standard techniques. Cells were stained per the manufacturer's instructions. Prior to staining, cells were blocked with appropriate sera or purified IgG. Acquisition was performed on a FACSCalibur (BD Biosciences) and analyzed with JoFlo software (Tree Star, Inc.). Forward and side scatter gated viable cells.
as §1

B1: PVRL2-Fc (amino acids 1-360 of PVR-like protein 2 fused to the Fc region of human IgG1) (Fc fusion, UniProt Q92692 32-360, looked up)
chain: QDVRVQVLPEVRGQLGGTVELPCHLLPPVPGLYISLVTWQRPDAPANHQNVAAFHPKMGPSFPSPKPGSERLSFVSAKQSTGQDTEAELQDATLALHGLTVEDEGNYTCEFATFPKGSVRGMTWLRVIAKPKNQAEAQKVTFSQDPTTVALCISKEGRPPARISWLSSLDWEAKETQVSGTLAGTVTVTSRFTLVPSGRADGVTVTCKVEHESFEEPALIPVTLSVRYPPEVSISGYDDNWYLGRTDATLSCDVRSNPEPTGYDWSTTSGTFPTSAVAQGSQLVIHAVDSLFNTTFVCTVTNAVGMGRAEQVIFVRETPNTAGAGATGG
notes: range 1-360; also called nectin-2; not shown: Fc region of human IgG1
For orientation: Kd means the constant that tells how readily two partners part at equilibrium. As for B1, in assay [1], the Kd was in the range of 3 to 13 nM. In assay [2], the MFI was 1000 to 5000 mfi.
